# AlphaSeq binding of Ab-14 light chain variants to a spike HR2 peptide

Binding partner: SARS-CoV-2 spike HR2 peptide, sequence PDVDLGDISGINAS.

Parent scFv Ab-14: VH joined to VL by a (GGGGS)3 linker. Changes lie in the light chain CDRs alone.
VH: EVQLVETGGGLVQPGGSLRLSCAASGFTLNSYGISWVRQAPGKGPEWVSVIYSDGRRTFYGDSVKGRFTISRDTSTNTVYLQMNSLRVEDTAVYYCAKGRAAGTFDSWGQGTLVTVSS
VL: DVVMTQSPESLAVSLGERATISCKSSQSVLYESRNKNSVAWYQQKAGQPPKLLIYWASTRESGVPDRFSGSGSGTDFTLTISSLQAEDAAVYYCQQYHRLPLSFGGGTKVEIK

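The parent was found by panning a naive human phage display library on the peptide. These sequences belong to a second round, designed from the earlier measurements on random variants of the parent. Their group label is 14L_En_Gen (En: ensemble of fine-tuned language models; Gen: genetic algorithm). The scFvs were displayed on barcoded MATa yeast, the peptide on MATalpha yeast. Mating (16 h, 30 °C) was followed by selection of diploids and sequencing of their barcodes. Read counts were normalised to the haploid input and turned into Kd by a linear fit to BCL2-family pairs of known affinity, for each replicate. Each pool was mated in six replicate cultures.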

Variants are written as CDR1, CDR2 and CDR3 of the light chain (limits as in the source). Parent: KSSQSVLYESRNKNSVA, WASTRES, QQYHRLPLS. Numbers give log10(Kd / nM), so 0 is 1 nM and 3 is 1 µM. Smaller is tighter. Replicates are averaged; those with no signal do not enter the mean. "nd" means that the variant was in the library but no mating with the target was seen in that replicate; the authors take this as a sign of poor binding, and no number exists. As a blank, each scFv also met three strains without target: over all light chain designs, 4% of these pairings were detected, typically at 2.64 and seldom below 1.59. The control count says in how many pairings with the empty strains this scFv gave a signal.

For KFSQMANTFSVSMNAVA, EMSTREN, QQYNRLPLS, the assay gave 0.32, 0.35, 0.31, 0.23, -0.05, 0.76 (mean 0.32; controls 0 of 18).
For TISQMTSLFSQTINNVA, EVSMREP, QQYDRLPLM, the assay gave 0.57, 0.55, 0.33, 0.46, 0.56, 0.71 (mean 0.53; controls 0 of 18).
For MLSEMLHMLGTKKNSIA, DLVMRAN, QQYHRLPLF, the assay gave 2.16, nd, nd, nd, 1.83, 1.80 (mean 1.93; controls 0 of 18).
For KISQMVRVGSTISNSIA, EEVTRAK, QQYHRLPLS, the assay gave 1.14, 0.75, 0.61, 0.68, 0.72, 0.70 (mean 0.77; controls 1 of 18).
For KIGMTLNTLMHKKNNVA, DLVMREN, QQYFRLPLS, the assay gave 1.15, 1.30, 1.90, 0.93, 1.50, 1.15 (mean 1.32; controls 1 of 18).
For KIGMVLNQMLHQKNNVA, DLVVREN, QQYHRLPLS, the assay gave 1.28, 0.20, 1.02, 0.27, 0.85, 0.85 (mean 0.75; controls 1 of 18).
For MVYGAAMMGGHARNSIA, NAQMRPD, QQYHRLPLI, the assay gave 1.53, 1.11, 0.65, 0.81, 1.01, 1.62 (mean 1.12; controls 1 of 18).
For KLSGLMQSSKFAKNNVA, ENNTREA, QQYDRLPLS, the assay gave 0.97, 1.88, 1.41, 2.10, 2.99, 1.36 (mean 1.78; controls 1 of 18).
For KLTMIMGLEKVSKNNVA, EMETRER, QQYNRLPLS, the assay gave 1.08, 0.69, 0.62, 1.02, 0.86, 0.99 (mean 0.88; controls 1 of 18).
For MISQIYNMGQFAINSVA, QASVRNA, QQYDRLPLM, the assay gave nd, nd, nd, 2.11, nd, nd (controls 0 of 18).
For TIGAQLMYGTRNRSNVA, EVSERLN, QQYDRLPLL, the assay gave nd, nd, nd, nd, nd, nd (controls 1 of 18).
For HMSMLTLMGSRQRNSVA, QMTTREN, QQYDRLPLM, the assay gave 1.96, 0.26, 0.40, 0.38, 0.64, 0.70 (mean 0.72; controls 0 of 18).
For MLSMVTEGMVRKHDSVA, DNSTREN, QQYDRLPLS, the assay gave 1.61, 1.15, 1.25, 1.60, 1.46, 1.87 (mean 1.49; controls 2 of 18).
For MISQLMNMGQFAINSVA, QASIRNS, QQYDRLPLI, the assay gave 0.86, 1.08, 0.80, 0.60, 0.59, 0.70 (mean 0.77; controls 4 of 18).
For MISQLINMGSFAINSVA, QAETRNE, QQYDRLPLE, the assay gave 1.32, 1.21, 0.99, 0.85, 1.67, 2.19 (mean 1.37; controls 1 of 18).
For HITYGMMVAGRHSSSIA, QAEERAK, QQYDRLPLI, the assay gave 1.12, 0.94, 1.05, 0.90, 1.57, 1.50 (mean 1.18; controls 1 of 18).
For KLTMIMGLEKVSKNNVA, EMETRER, QQYNRLPLA, the assay gave 0.88, 1.25, 1.19, 0.32, 1.24, 0.92 (mean 0.97; controls 0 of 18).
For KLVQFMNRGTHHTSNIA, DAQNRCD, QQYYRLPLA, the assay gave 0.81, 0.80, 0.53, 0.60, 0.86, 0.94 (mean 0.76; controls 1 of 18).
For IVSQVMSWGIKAKNSIA, EAQTRLN, QQYDRLPLF, the assay gave 1.39, 0.99, 1.09, 0.74, 0.78, 1.42 (mean 1.07; controls 0 of 18).
For MISQLMNMGTFAINSVA, QASIRNA, QQYDRLPLA, the assay gave 2.49, 1.61, 2.10, 2.49, 1.55, 2.45 (mean 2.11; controls 0 of 18).
For MLSQMWALGMKAKNSVA, QASMRFN, QQYERLPLI, the assay gave 0.80, 0.15, 0.63, 0.13, 0.53, 0.87 (mean 0.52; controls 0 of 18).
For KLSMTIEMELKNRNSVA, ELVTRMS, QQYNRLPLS, the assay gave 2.18, 1.03, 0.67, 0.39, 2.55, 2.50 (mean 1.55; controls 0 of 18).
For KLRAVTGTEKVIGNNVA, EMETRER, QQYNRLPLS, the assay gave 0.60, 0.34, 0.44, -0.08, 0.06, 0.51 (mean 0.31; controls 0 of 18).
For HMSMLTLQGMRHTNSVA, QMTTRVN, QQYDRLPLT, the assay gave 1.01, 1.20, 0.78, 0.26, 0.68, 1.45 (mean 0.90; controls 0 of 18).
For MISQLMNMGTFAINSVA, QASIRNS, QQYDRLPLT, the assay gave nd, 2.20, nd, nd, nd, nd (controls 0 of 18).
For KLTMITGLEKVQKNNVA, EMETREQ, QQYNRLPLS, the assay gave -0.14, -0.05, 0.00, -0.14, 0.17, 0.18 (mean 0.00; controls 0 of 18).
For QIYQAMHTLSQHKDNVA, DVNERGS, QQYYRLPLS, the assay gave 0.51, 1.40, 0.43, 0.53, -0.03, 1.09 (mean 0.65; controls 0 of 18).
For IVSQLMLWGMHAKNSIA, EASTRLN, QQYDRLPLF, the assay gave nd, nd, nd, 1.82, nd, 2.01 (mean 1.91; controls 2 of 18).
For QIYQAMHTLMQAKNNVA, DVTNRNR, QQYNRLPLS, the assay gave 1.14, 0.96, 1.28, 0.83, 0.97, 1.13 (mean 1.05; controls 1 of 18).
For TIGSTLMYGMRNRSNVA, EVSERCN, QQYDRLPLL, the assay gave 1.47, 1.25, 1.65, 1.30, 1.37, 1.25 (mean 1.38; controls 2 of 18).
For KISAVMENQLKNRNSVA, ELVTRMN, QQYNRLPLS, the assay gave 1.31, 0.37, 0.55, 0.13, 0.07, 0.46 (mean 0.48; controls 0 of 18).
For KLSMITGHMSMAKNNVA, EMVTREK, QQYNRLPLS, the assay gave 0.42, 0.04, 0.25, 0.35, 0.05, -0.06 (mean 0.17; controls 1 of 18).
For MVTQMAMSGMTNKRSVA, NAETREN, QQYHRLPLI, the assay gave 1.67, 2.57, 1.18, 1.35, 0.70, 1.27 (mean 1.46; controls 2 of 18).
For MISQLMNMGTFAINSVA, QASIRNQ, QQYDRLPLT, the assay gave 1.61, 1.52, 1.14, nd, nd, 1.75 (mean 1.50; controls 0 of 18).
For KVSEFMRGLMNRKDSIA, DNVTRSN, QQYDRLPLS, the assay gave nd, 2.64, nd, nd, nd, 2.46 (mean 2.55; controls 2 of 18).
For TLHMVTEGMRRKHNSVA, DNSTRED, QQYDRLPLS, the assay gave nd, 2.57, nd, nd, nd, nd (controls 0 of 18).
For MISQLYNMGQFAINSVA, QASLRNE, QQYDRLPLE, the assay gave 2.01, 2.03, 1.65, 1.43, 1.87, 1.57 (mean 1.76; controls 0 of 18).
For MLSEVAHGLSRKENSVA, DNDTRNS, QQYDRLPLS, the assay gave 0.70, 0.92, 0.83, 0.35, 1.25, 1.24 (mean 0.88; controls 0 of 18).
For MISQLYNMGQFAINSVA, QAETRCN, QQYDRLPLM, the assay gave 2.19, 1.41, 1.08, 1.45, 1.66, 2.35 (mean 1.69; controls 0 of 18).
For KVSEFMRGLMKMKDSIA, DNETRGA, QQYDRLPLS, the assay gave nd, nd, nd, 1.39, nd, nd (controls 0 of 18).
For MISQVMNTLTRNGNNVA, DLTEREK, QQYFRLPLS, the assay gave 1.13, 0.94, 2.15, 1.10, 0.50, nd (mean 1.16; controls 1 of 18).

The first 6 entries again:

With KFSQMANTFSVSMNAVA, EMSTREN, QQYNRLPLS the result was 0.32, 0.35, 0.31, 0.23, -0.05, 0.76 (mean 0.32; controls 0 of 18).
With TISQMTSLFSQTINNVA, EVSMREP, QQYDRLPLM the result was 0.57, 0.55, 0.33, 0.46, 0.56, 0.71 (mean 0.53; controls 0 of 18).
With MLSEMLHMLGTKKNSIA, DLVMRAN, QQYHRLPLF the result was 2.16, nd, nd, nd, 1.83, 1.80 (mean 1.93; controls 0 of 18).
With KISQMVRVGSTISNSIA, EEVTRAK, QQYHRLPLS the result was 1.14, 0.75, 0.61, 0.68, 0.72, 0.70 (mean 0.77; controls 1 of 18).
With KIGMTLNTLMHKKNNVA, DLVMREN, QQYFRLPLS the result was 1.15, 1.30, 1.90, 0.93, 1.50, 1.15 (mean 1.32; controls 1 of 18).
With KIGMVLNQMLHQKNNVA, DLVVREN, QQYHRLPLS the result was 1.28, 0.20, 1.02, 0.27, 0.85, 0.85 (mean 0.75; controls 1 of 18).

Of ten entries with the parent sequence, four were seen in most replicates (averages 0.34 to 2.37), three in one and three in none, so single entries are noisy. A sequence measured in both rounds can read differently, since the two assays cover different ranges. The authors averaged sequences with at least three values out of six and counted those with two or fewer as poor binders.

Reference: Li et al. 2023, doi:10.1038/s41467-023-39022-2. File: FLAb, binding data.